Key:
[1] = target: T1, FL-FLAG-Parkin 56°C (thermal treated) (Homo sapiens, UniProt O60260); assay: SPR kinetics/affinity on thermal treated FL-FLAG Parkin captured by anti-FLAG antibody; conditions: 1:1 binding model, thermal treated 56°C, read-out: Affinities KD of protein ligands
T1 construct: the entire coding region (residues 1–465) from NM_004562.1 was cloned into pFastBac; made in house; host or cells: Sf9 or Sf21 insect cells (baculovirus)
T1 sequence (O60260 1-465): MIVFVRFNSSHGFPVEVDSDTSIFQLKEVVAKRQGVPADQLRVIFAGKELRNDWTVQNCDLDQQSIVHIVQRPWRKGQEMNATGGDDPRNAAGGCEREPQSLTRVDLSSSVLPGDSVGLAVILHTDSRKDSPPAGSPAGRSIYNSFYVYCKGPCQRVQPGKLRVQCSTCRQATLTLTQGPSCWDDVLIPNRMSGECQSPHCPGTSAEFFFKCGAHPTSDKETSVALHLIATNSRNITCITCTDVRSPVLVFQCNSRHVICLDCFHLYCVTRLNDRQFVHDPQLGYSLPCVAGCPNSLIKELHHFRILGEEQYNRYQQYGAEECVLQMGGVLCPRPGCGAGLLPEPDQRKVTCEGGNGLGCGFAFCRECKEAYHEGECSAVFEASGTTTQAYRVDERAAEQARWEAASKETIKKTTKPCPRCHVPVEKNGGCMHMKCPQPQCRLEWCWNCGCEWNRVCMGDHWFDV
Description: Kinetics and Affinity measurements were performed on a GE Healthcare Biacore T100 or T200 instrument. Anti-FLAG antibody M2 was immobilized on a CM5 sensor chip using standard amine coupling procedure at a concentration of 100 μg/ml to a level of 10000 response units (RU). […] The running buffer for both methods was 10 mM HEPES pH 7.4, 150 mM NaCl, 0.005% Tween-20, 4 mM reducing agent. […] Flow cell 2 contained antibody only to control for non-specific binding of fragments to the antibody, and flow cells 3 and 4 contained antibody and captured Parkin. […]
(§1) The flow rate was 30μl/min. The time-dependent binding curves were monitored simultaneously. […]
Kinetic and affinity data were solvent corrected (fragments only), reference subtracted and blank subtracted using the Biacore T200 evaluation software V.1. Kinetic constants were determined by curve fitting using a 1∶1 binding model. […] The rate of complex formation (1∶1 interaction) during fragment injection was calculated according to the equation (2): [drawing 2] […] The dissociation phase kd was measured using the rate of decline in RU after the injection stop, when free running buffer is flowing over the surface. Data were simultaneously fitted by the software and the dissociation constant KD calculated using equation (3). […] (3) Ligand efficiency (LE, Δg) was calculated as the binding energy of ligand per atom (equation 4) [drawing 4] […]

[2] = target: T2, FL-FLAG-Parkin RT (non-thermal treated) (Homo sapiens, UniProt O60260); assay: SPR kinetics/affinity on non-thermal treated FL-FLAG Parkin captured by anti-FLAG antibody; conditions: 1:1 binding model, Parkin:Ab 3:1, non-thermal treated, read-out: Affinities KD of protein ligands
T2 construct: the entire coding region (residues 1–465) from NM_004562.1 was cloned into pFastBac; made in house; host or cells: Sf9 or Sf21 insect cells (baculovirus)
T2 sequence (O60260 1-465): T1 sequence (O60260 1-465)
Description: Kinetics and Affinity measurements were performed on a GE Healthcare Biacore T100 or T200 instrument. Anti-FLAG antibody M2 was immobilized on a CM5 sensor chip using standard amine coupling procedure at a concentration of 100 μg/ml to a level of 10000 response units (RU). […] Flow cell 2 contained antibody only to control for non-specific binding of fragments to the antibody, and flow cells 3 and 4 contained antibody and captured Parkin. Untagged Parkin domain R0RBR was immobilized by amine coupling at a concentration of 100 μg/ml in 10 mM acetic acid pH 5.0 using the same running buffer as for anti-FLAG antibody immobilization. […]
as §1
Kinetic and affinity data were solvent corrected (fragments only), reference subtracted and blank subtracted using the Biacore T200 evaluation software V.1. Kinetic constants were determined by curve fitting using a 1∶1 binding model. […] The rate of complex formation (1∶1 interaction) during fragment injection was calculated according to the equation (2): [drawing 2] […] The dissociation phase kd was measured using the rate of decline in RU after the injection stop, when free running buffer is flowing over the surface. Data were simultaneously fitted by the software and the dissociation constant KD calculated using equation (3). […]

UbcH7: Ubiquitin conjugating enzyme E2, non-tagged, purified in house
Kd [1]: 8.1 µM | Kd [2]: 4.7 µM

From publication PMC3702509, “Label Free Fragment Screening Using Surface Plasmon Resonance as a Tool for Fragment Finding – Analyzing Parkin, a Difficult CNS Target” (PLoS ONE, 2013)
